# Publication PMC6411902, “RNF126 Quenches RNF168 Function in the DNA Damage Response” (Genomics, Proteomics & Bioinformatics, 2018)
# Target: T1, His-RNF168 (human)
# T1 construct: RNF168, full length cDNA inserted into the SacI and XhoI sites of pET-28a; also called recombinant His-RNF168; bacterially-produced His-RNF168; source: E. coli, recombinant
# Assay: pull-down; bacterially-produced GST-RNF126 as bait; bacterially-produced His-RNF168
# Details: both partners purified
binder,measurement,value
"GST-RNF126 (natural protein, human, UniProt Q9BV68 1-311, looked up, RNF126, full length cDNA subcloned into the BamHI and SalI sites of pGEX-6P-1; pGEX-6P-1 is surmised to put GST at the N-terminus; also called recombinant protein GST-RNF126; bacterially-produced GST-RNF126; source: E. coli, recombinant) MAEASPHPGRYFCHCCSVEIVPRLPDYICPRCESGFIEELPEETRSTENGSAPSTAPTDQSRPPLEHVDQHLFTLPQGYGQFAFGIFDDSFEIPTFPPGAQADDGRDPESRRERDHPSRHRYGARQPRARLTTRRATGRHEGVPTLEGIIQQLVNGIITPATIPSLGPWGVLHSNPMDYAWGANGLDAIITQLLNQFENTGPPPADKEKIQALPTVPVTEEHVGSGLECPVCKDDYALGERVRQLPCNHLFHDGCIVPWLEQHDSCPVCRKSLTGQNTATNPPGLTGVSFSSSSSSSSSSSPSNENATSNS",binding result,binds
